Experiment: Stability testing of analytes in human K2 EDTA plasma and sample extracts
Settings: for Observed Concentration ± S.D.: n = 6
[1] = bench top (6.2 h, ice-water bath), spiked 60.0 pg/mL, human K2 EDTA plasma
[2] = bench top (6.2 h, ice-water bath), spiked 7500 pg/mL, human K2 EDTA plasma
[3] = extract (74 h, 2-8° C.), spiked 60.0 pg/mL
[4] = extract (74 h, 2-8° C.), spiked 7500 pg/mL
[5] = freeze-thaw (4 cycles), spiked 60.0 pg/mL, human K2 EDTA plasma
[6] = freeze-thaw (4 cycles), spiked 7500 pg/mL, human K2 EDTA plasma
[7] = long-term (−20° C., 606 days), spiked 60.0 pg/mL, human K2 EDTA plasma
[8] = long-term (−20° C., 606 days), spiked 7500 pg/mL, human K2 EDTA plasma

In the case of `CO[C@]12CC[C@@]3(C[C@@H]1[C@](C)(O)C(C)(C)C)[C@H]1Cc4ccc(O)c5c4[C@@]3(CCN1)[C@H]2O5`, the “Bias (vs nominal concentration)” value [1] is reported as −2.5%, the “Observed Concentration ± S.D.” value [1] is reported as 58.5 ± 2.82 ng/mL and the “Bias (vs nominal concentration)” value [2] is reported as −5.2%. The “Observed Concentration ± S.D.” value [2] was 7110 ± 146 ng/mL, the “Bias (vs nominal concentration)” value [3] was −3.0% and the “Observed Concentration ± S.D.” value [3] was 58.2 ± 4.35 ng/mL. For the same compound, the “Bias (vs nominal concentration)” value [4] was −2.1%, the “Observed Concentration ± S.D.” value [4] was 7339 ± 217 ng/mL and the “stability (in words)” value (extracted solution, refrigerated (2-8° C.) for at least 73.8 hours) was “stable”. For the same compound, the “Bias (vs nominal concentration)” value [5] was −0.8%, the “Observed Concentration ± S.D.” value [5] was 59.5 ± 1.46 ng/mL and the “Bias (vs nominal concentration)” value [6] was 1.4%. The “Observed Concentration ± S.D.” value [6] was 7608 ± 367 ng/mL, the “stability (in words)” value (human plasma samples stored at −20° C. for at least 606 days) was “stable” and the “Bias (vs nominal concentration)” value [7] was −7.4%. For the same compound, the “Observed Concentration ± S.D.” value [7] was 55.6 ± 1.34 ng/mL, the “Bias (vs nominal concentration)” value [8] was −5.2% and the “Observed Concentration ± S.D.” value [8] was 7110 ± 169 ng/mL. The “stability (in words)” value (unextracted human plasma after four freeze/thaw cycles) was “stable” and the “stability (in words)” value (unextracted human plasma on the benchtop for 6.2 hours in an ice-water bath) was “stable”.
